Earlier results in patent publication US6511970B1, “Prevention of ovarian cancer by administration of products that induce transforming growth factor-beta and/or apoptosis in the ovarian epithelium” (New Life Pharmaceuticals Inc., priority 1996, dated 2003).

Details: ppm (mg/kg); cited from earlier work

[Se] [selenium]
level at which it becomes toxic: 8-10 ppm
